Measured values as given in ChEMBL document CHEMBL1123739, “Relationships between DNA-binding kinetics and biological activity for the 9-aminoacridine-4-carboxamide class of antitumor agents” (J Med Chem, 1987).

Columns and labels:
Calf thymus DNA [1] = test: Dissociation constant of poly(dG-dC)DNA binding in calf thymus; format: functional; conditions: Bos taurus
Calf thymus DNA [2] = test: DNA dissociation constant from calf thymus; format: functional; conditions: Bos taurus
Outline: (§1)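 Stopped-flow SDS-sequestration assay. Sonicated calf thymus DNA (400 µM base pairs) and 20 µM drug in 0.1 SHE buffer (2 mM HEPES, 10 µM EDTA, 99.4 mM NaCl, pH 7.0) were mixed 1:1 with 20 mM SDS at 20 °C. Absorbance decay was deconvoluted into exponential time constants by curve stripping. At least six runs were averaged; ratios were taken between time constants.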

Calf thymus DNA [3] = test: Dissociation constant of poly(dG-dC)DNA in calf thymus; format: functional; conditions: Bos taurus
Calf thymus DNA [4] = test: DNA dissociation constant was determined from calf thymus; format: functional; conditions: Bos taurus; outline: as §1
Nucleic Acid = test: Difference between log K of (AT) and log K of (GC) DNA binding; format: nucleic-acid assay
Calf thymus DNA [5] = conditions: Bos taurus
Calf thymus DNA [6] = conditions: Bos taurus; remark: listed apart in the source
Calf thymus DNA [7] = conditions: Bos taurus; remark: listed apart in the source

`CN(C)CCNC(=O)c1cccc2c(N)c3ccccc3nc12` showed a Time constant T1 (Calf thymus DNA [1]) of 3, a Time constant T1 (Calf thymus DNA [2]) of 6 ms and a Time constant T3 (Calf thymus DNA [2]) of 86 ms. The Time constant T4 (Calf thymus DNA [2]) was 428 ms, the Time constant T2 (Calf thymus DNA [3]) was 76 and the Time constant T3 (Calf thymus DNA [3]) was 230. It also gave a Time constant T2 (Calf thymus DNA [4]) of 28 ms, a Log K delta (Nucleic Acid) of 0.35 and a Time constant T1 (Calf thymus DNA [5]) of 4. The Time constant T1 (Calf thymus DNA [6]) was 5 and the Time constant T2 (Calf thymus DNA [7]) was 8.
